Patent US5972598A, “Methods for preventing multidrug resistance in cancer cells” (priority 1995, dated 1999)

System: MDR1
Type: cell-based, human

Compound: O=C(O)CCCc1ccc(N(CCCl)CCCl)cc1 [chlorambucil]
- maintenance of MDR1 expression after removal of the drug (K562 cells treated 3-5 days, then grown in absence of drug): least several weeks
- MDR1 induction, mRNA and protein levels (human leukemia and solid-tumor derived cell lines, subpopulation of treated cells): MDR1 induction, both at the mRNA and at the protein levels, was observed
